For one compound, inhibition results are on record in US6713473B1, “Tricyclic compounds” (Meiji Seika Kaisha, Ltd., priority 1999, dated 2004).

The assay has as its target T1, human Y5 receptor (Homo sapiens, UniProt Q15761).
T1 sequence (Q15761 1-445): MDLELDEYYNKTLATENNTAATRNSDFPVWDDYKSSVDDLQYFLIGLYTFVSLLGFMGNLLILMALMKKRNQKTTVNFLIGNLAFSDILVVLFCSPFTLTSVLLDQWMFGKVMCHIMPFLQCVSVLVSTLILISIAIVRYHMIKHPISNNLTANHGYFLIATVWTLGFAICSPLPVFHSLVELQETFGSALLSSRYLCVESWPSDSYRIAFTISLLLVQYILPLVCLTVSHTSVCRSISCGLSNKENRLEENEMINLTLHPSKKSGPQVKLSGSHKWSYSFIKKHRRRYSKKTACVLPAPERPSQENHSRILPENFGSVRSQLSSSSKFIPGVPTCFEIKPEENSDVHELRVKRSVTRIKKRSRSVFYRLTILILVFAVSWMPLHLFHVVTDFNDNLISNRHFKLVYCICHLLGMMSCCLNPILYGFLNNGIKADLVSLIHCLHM
In words: Y5 receptor binding inhibition test. The note with it: 2 h, read-out: % Inhibition ratio (10 μM).

As to `CCn1c2ccccc2c2cc(NC(=O)C(C)C)ccc21` [Compound 3-4], the inhibition at 10 µM was 96%.
